Reference: ChEMBL document CHEMBL4613315, “Design of First-in-Class Dual EZH2/HDAC Inhibitor: Biochemical Activity and Biological Evaluation in Cancer Cells” (ACS Med Chem Lett, 2020)

By UniProt entry, the sequences of proteins in these tests, tags left out.
UniProt Q15910, whole entry, looked up: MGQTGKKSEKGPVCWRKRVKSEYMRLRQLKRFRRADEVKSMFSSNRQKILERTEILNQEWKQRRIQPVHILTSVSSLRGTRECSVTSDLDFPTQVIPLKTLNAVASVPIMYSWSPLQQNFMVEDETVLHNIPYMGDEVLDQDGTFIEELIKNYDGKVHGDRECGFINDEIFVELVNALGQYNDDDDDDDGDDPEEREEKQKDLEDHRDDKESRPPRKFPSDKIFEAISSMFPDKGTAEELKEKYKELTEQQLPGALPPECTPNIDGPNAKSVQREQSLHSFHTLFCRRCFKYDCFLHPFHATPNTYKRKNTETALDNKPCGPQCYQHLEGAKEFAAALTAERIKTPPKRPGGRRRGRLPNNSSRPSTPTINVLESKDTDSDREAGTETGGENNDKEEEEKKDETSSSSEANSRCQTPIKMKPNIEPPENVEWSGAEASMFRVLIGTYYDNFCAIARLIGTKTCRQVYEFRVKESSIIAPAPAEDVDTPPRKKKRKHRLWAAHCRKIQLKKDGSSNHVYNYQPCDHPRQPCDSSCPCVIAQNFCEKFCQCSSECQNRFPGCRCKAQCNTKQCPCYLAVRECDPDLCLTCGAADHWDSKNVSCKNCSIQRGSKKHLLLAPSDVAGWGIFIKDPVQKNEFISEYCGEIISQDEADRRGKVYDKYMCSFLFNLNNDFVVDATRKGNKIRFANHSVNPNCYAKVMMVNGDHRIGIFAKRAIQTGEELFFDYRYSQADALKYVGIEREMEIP

Legend:
Type in all cases: cell-based
[1] = molecular target: T1, Protein deacetylase HDAC6 (Homo sapiens) (UniProt Q9UBN7); test: Inhibition of HDAC6 in human RH4 cells assessed as acetylated alpha-tubulin level at 50 uM incubated for 96 hrs by Western blot analysis
T1 sequence (whole entry): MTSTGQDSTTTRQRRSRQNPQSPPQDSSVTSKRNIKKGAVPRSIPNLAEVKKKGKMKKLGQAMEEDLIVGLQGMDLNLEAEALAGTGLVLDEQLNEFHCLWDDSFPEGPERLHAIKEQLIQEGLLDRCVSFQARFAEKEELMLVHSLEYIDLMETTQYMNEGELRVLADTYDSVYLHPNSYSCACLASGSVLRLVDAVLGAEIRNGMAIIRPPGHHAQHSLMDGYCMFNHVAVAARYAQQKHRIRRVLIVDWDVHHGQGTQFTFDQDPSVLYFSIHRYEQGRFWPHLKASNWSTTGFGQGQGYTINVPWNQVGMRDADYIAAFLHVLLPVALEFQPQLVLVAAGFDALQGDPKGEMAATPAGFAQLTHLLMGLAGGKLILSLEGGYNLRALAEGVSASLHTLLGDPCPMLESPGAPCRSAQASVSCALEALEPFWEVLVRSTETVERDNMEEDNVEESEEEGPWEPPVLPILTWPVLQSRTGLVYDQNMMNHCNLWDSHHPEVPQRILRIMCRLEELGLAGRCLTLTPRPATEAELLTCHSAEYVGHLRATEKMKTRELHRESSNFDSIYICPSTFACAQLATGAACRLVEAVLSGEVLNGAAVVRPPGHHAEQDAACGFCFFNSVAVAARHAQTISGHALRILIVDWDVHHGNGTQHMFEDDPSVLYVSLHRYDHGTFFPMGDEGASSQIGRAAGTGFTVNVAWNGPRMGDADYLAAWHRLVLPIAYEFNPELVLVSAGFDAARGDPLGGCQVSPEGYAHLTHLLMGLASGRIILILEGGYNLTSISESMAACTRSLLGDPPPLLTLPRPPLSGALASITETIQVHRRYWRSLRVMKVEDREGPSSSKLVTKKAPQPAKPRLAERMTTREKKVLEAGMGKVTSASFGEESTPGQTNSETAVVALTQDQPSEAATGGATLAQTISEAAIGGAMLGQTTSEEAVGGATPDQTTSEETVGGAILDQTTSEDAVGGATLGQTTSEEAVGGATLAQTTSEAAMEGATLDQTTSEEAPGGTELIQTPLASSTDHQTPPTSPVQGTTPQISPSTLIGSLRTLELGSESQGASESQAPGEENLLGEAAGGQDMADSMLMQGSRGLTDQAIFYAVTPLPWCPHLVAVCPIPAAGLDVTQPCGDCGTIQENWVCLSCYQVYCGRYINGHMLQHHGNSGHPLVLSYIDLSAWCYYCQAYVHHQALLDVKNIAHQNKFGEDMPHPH

[2] = molecular target: T2, Histone-lysine N-methyltransferase EZH2 (Homo sapiens, UniProt Q15910); test: Inhibition of EZH2 in human U937 cells assessed as H3K27me3 level at 50 uM incubated for 96 hrs by Western blot analysis; settings: U-937
[3] = molecular target: T2, Histone-lysine N-methyltransferase EZH2; test: Inhibition of EZH2 in human RH4 cells assessed as H3K27me3 level at 50 uM incubated for 72 hrs by Western blot analysis
[4] = molecular target: T1, Protein deacetylase HDAC6 (Homo sapiens); test: Inhibition of HDAC6 in human RH4 cells assessed as acetylated alpha-tubulin level at 50 uM incubated for 72 hrs by Western blot analysis
[5] = molecular target: T2, Histone-lysine N-methyltransferase EZH2; test: Inhibition of EZH2 in human U937 cells assessed as H3K27me3 level at 50 uM incubated for 120 hrs by Western blot analysis; settings: U-937
[6] = molecular target: T2, Histone-lysine N-methyltransferase EZH2; test: Inhibition of EZH2 in human RH4 cells assessed as H3K27me3 level at 50 uM incubated for 96 hrs by Western blot analysis

Cc1cc(C)c(CNC(=O)c2cc(C)n(-c3cccc(NC(=O)CCCCCCC(=O)NO)c3)c2C)c(=O)[nH]1
fold change (FC) [1]: 3.8 | fold change (FC) [2]: 1.1 | fold change (FC) [3]: 0.3 | fold change (FC) [4]: 13.4 | fold change (FC) [5]: 5.4 | fold change (FC) [6]: 0.6
